According to patent US20210340177A1, “BIOACTIVE PEPTIDES HAVING HIGH BINDING AFFINITY TO HUMAN MUSCULAR NICOTINIC ACETYLCHOLINE RECEPTOR” (priority 2020, published 2021):

Test system: muscle cells
Format: cell-based
Protocol: The efficacy of peptides V0083091A (KKYK; SEQ ID NO: 1) and V0083092A (KWKK; […]. Muscle cells were incubated or treated without (control) or with compounds, for example, peptides V0083091A and V0083092A, and contraction of the muscle cells was evaluated after incubation for 5 hours, after incubation for 24 hours, or after incubation for 24 hours followed by a washing step.

Q: `CN1C(=O)CN=C(c2ccccc2)c2cc(Cl)ccc21` [diazepam] was tested. Which “Inhibition of contraction of muscle cells, compared with spilanthol” value did it give?
A: The value was “same profile as spilanthol; also recorded: slightly larger”.

“Also recorded” adds a separate entry of the source.
